Test [1] addresses T1, JAK3/JAK1 (Homo sapiens, UniProt P23458+P52333). It is filed as protein-complex assay.
In test [2] the target is T1, JAK3/JAK1. It is filed as tissue-based, Blood.
Test [3] has as its target T2, Tyrosine-protein kinase JAK3 (Homo sapiens, UniProt P52333).
T2 sequence (P52333 whole entry): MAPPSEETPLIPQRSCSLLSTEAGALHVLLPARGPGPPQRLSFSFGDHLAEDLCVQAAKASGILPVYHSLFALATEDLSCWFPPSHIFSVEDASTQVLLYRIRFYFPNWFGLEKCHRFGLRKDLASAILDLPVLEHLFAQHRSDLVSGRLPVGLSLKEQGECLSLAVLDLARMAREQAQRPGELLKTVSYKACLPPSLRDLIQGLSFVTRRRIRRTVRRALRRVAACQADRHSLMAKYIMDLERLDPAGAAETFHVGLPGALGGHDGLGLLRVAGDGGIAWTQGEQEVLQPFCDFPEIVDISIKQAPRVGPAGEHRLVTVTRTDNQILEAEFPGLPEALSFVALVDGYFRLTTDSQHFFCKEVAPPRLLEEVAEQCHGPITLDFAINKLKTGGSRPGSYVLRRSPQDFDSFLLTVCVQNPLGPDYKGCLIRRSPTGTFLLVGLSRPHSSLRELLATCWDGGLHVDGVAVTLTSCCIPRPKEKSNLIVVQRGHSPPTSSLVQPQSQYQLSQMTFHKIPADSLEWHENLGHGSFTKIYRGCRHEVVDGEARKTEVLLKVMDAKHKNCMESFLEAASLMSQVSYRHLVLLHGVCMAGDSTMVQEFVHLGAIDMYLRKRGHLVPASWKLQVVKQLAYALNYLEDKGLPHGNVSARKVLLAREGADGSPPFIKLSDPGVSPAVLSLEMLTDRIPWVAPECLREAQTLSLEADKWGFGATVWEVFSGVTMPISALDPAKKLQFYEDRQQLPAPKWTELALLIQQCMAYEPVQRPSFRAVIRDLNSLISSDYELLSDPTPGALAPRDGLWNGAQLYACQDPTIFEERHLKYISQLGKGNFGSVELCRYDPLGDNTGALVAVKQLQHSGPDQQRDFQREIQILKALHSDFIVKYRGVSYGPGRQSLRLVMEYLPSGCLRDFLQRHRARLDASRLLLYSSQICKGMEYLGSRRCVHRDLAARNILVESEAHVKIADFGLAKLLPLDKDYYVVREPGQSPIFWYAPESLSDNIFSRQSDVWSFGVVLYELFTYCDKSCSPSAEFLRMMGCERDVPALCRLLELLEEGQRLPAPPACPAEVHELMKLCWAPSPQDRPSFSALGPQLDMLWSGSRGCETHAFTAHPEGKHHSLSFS

SMILES strings stand for the structures. Some results are limits rather than exact numbers.

With `C[C@@H](NC(=O)c1c[nH]c2ncc(C3CC3)nc12)C(=O)N1CC(C#N)C1`, the IC50 was 328 nM against JAK3/JAK1 [1], 805 nM against JAK3/JAK1 [2] and 8.2 nM in test [3].

Compound `C[C@@H](NC(=O)c1c[nH]c2ncc(C3CC3)nc12)C(=O)N1CCCC1` gave an IC50 in test [3] of 48.5 nM. That is a double-digit nanomolar value.

As to `N#C[C@@H]1CCN(C(=O)[C@H](NC(=O)c2c[nH]c3ncc(C4CC4)nc23)C2CC2)C1`, the IC50 in test [3] was less than 0.3 nM.

On to `CC(C)NC(=O)c1c[nH]c2ncc(C3CC3)nc12`, for which, in test [3], half-maximal inhibition (IC50) was put at 44.5 nM.

For `C[C@H](NC(=O)c1c[nH]c2ncc(C3CC3)nc12)C(C)(C)O`, the figures for the IC50 (against JAK3/JAK1 [1]; against JAK3/JAK1 [2]; in test [3]) were 2230 nM, 15700 nM and 17 nM, respectively.

As to `N#C[C@H]1CCN(C(=O)[C@H](NC(=O)c2c[nH]c3ncc(C4CC4)nc23)C2CC2)C1`, the IC50 against JAK3/JAK1 [1] came out at 28 nM; at JAK3/JAK1 [2] it was 1150 nM; in test [3], 0.44 nM.

The IC50 is the concentration that inhibits the measured activity by half.

The values are drawn from ChEMBL document CHEMBL2321829, “3-Amido pyrrolopyrazine JAK kinase inhibitors: development of a JAK3 vs JAK1 selective inhibitor and evaluation in cellular and in vivo models” (J Med Chem, 2013).
